# scFv variants of Ab-14 (light chain) against a SARS-CoV-2 spike peptide

Target peptide (SARS-CoV-2 spike, HR2 region): PDVDLGDISGINAS

Parent scFv Ab-14: VH joined to VL by a (GGGGS)3 linker. Changes lie in the light chain CDRs alone.
VH: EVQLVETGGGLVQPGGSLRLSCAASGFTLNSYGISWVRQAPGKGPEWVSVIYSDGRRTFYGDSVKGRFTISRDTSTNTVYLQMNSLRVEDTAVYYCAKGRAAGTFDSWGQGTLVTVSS
VL: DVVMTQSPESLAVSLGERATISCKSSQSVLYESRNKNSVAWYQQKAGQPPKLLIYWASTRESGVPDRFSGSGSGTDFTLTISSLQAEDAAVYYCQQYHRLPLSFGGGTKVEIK

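These sequences belong to a second round, designed from the earlier measurements on random variants of the parent. Their group label is 14L_GP_HC (GP: Gaussian process model; HC: hill climbing; a sequence that several methods proposed may carry one label only). The scFvs were displayed on barcoded MATa yeast, the peptide on MATalpha yeast. Mating (16 h, 30 °C) was followed by selection of diploids and sequencing of their barcodes. Read counts were normalised to the haploid input and turned into Kd by a linear fit to BCL2-family pairs of known affinity, for each replicate. Mating was done six times.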

Substitutions are numbered in sequence along the VL above, starting at 1 (not Kabat).
Affinities are written as log10 Kd with Kd in nM; a lower number is a better binder.
Empty control strains, which show no peptide, gave a signal in 4% of pairings with all light chain designs; the median was 2.64 and 95% of these signals were weaker than 1.59. No background was subtracted. For each scFv, signals with the empty controls are counted beside the result, with their mean in brackets.
Values of this round are not directly comparable with the first-round values of the same sequences.
In the paper, a design with two or fewer of six values counts as a poor binder.

{"changes": "S26E/W56H/S62D", "log10 Kd (nM) by replicate": "0.52 / -0.33 / 0.06 / 0.18 / -0.20 / 0.17", "signal with controls": "2 of 18 (2.07)"}
{"changes": "S25L/S26P/V29T/L30K/K36Q", "log10 Kd (nM) by replicate": "0.42 / 0.63 / 0.71 / 0.48 / 0.49 / 0.48", "signal with controls": "2 of 18 (2.82)"}
{"changes": "Q27I/V29H/Y31G/S33K/W56E", "log10 Kd (nM) by replicate": "1.97 / 1.21 / 0.74 / 0.71 / 1.28 / 0.98", "signal with controls": "2 of 18 (2.31)"}
{"changes": "S25L/S26A/V29T/W56L", "log10 Kd (nM) by replicate": "1.21 / 1.73 / 2.08 / 1.57 / 1.22 / 1.57", "signal with controls": "0 of 18"}
{"changes": "S25Q/W56N/S103D", "log10 Kd (nM) by replicate": "0.09 / 0.67 / 0.19 / 0.25 / 0.50 / 0.48", "signal with controls": "0 of 18"}
{"changes": "S25L/S26R/V29T/K36Q/E61L", "log10 Kd (nM) by replicate": "0.89 / 0.60 / 0.39 / 1.42 / 0.66 / 0.68", "signal with controls": "1 of 18 (2.92)"}
{"changes": "S26L/S28G/V29W/W56H/S62Q", "log10 Kd (nM) by replicate": "0.62 / 0.60 / 0.45 / 0.36 / 0.46 / 0.63", "signal with controls": "1 of 18 (2.75)"}
{"changes": "V29Y/W56E/S62Q", "log10 Kd (nM) by replicate": "0.33 / 0.27 / 0.63 / 0.17 / 0.02 / 0.15", "signal with controls": "0 of 18"}
{"changes": "K24H/Q27P/V29T/W56N/T59Y", "log10 Kd (nM) by replicate": "1.18 / 0.49 / 1.02 / 0.92 / 1.43 / 1.43", "signal with controls": "0 of 18"}
{"changes": "S25L/S26R/V29T/W56L/T59Q", "log10 Kd (nM) by replicate": "0.58 / 1.61 / 1.10 / 1.09 / 1.72 / 1.11", "signal with controls": "1 of 18 (2.14)"}
{"changes": "S25L/S26G/Q27C/S28G/S33G/W56G", "log10 Kd (nM) by replicate": "0.81 / 0.56 / 0.31 / 0.13 / 0.20 / 0.77", "signal with controls": "0 of 18"}
{"changes": "S25F/Q27W/Y31F/W56D/E61S", "log10 Kd (nM) by replicate": "-0.02 / -0.10 / -0.22 / -0.48 / -0.65 / -0.02", "signal with controls": "0 of 18"}
{"changes": "Q27I/V29G/N35Y/W56E", "log10 Kd (nM) by replicate": "0.82 / 0.72 / 0.50 / 0.57 / 0.49 / 0.86", "signal with controls": "0 of 18"}
{"changes": "S26P/V29W/W56G/T59F", "log10 Kd (nM) by replicate": "-0.16 / -0.27 / -0.28 / -0.34 / -0.25 / -0.21", "signal with controls": "1 of 18 (1.66)"}
{"changes": "S25Y/S38A/W56D", "log10 Kd (nM) by replicate": "0.47 / -0.25 / -0.07 / -0.13 / 0.04 / 0.09", "signal with controls": "1 of 18 (1.64)"}
{"changes": "S25E/V29W/W56G", "log10 Kd (nM) by replicate": "0.36 / 0.37 / 0.44 / 0.42 / 0.37 / 0.43", "signal with controls": "1 of 18 (3.67)"}
{"changes": "S25F/N35T/W56N/S58V/S62Q", "log10 Kd (nM) by replicate": "0.17 / 0.01 / 0.12 / -0.10 / -0.06 / 0.09", "signal with controls": "4 of 18 (2.99)"}
{"changes": "S25F/N35M/W56N/S58V/S62T", "log10 Kd (nM) by replicate": "-0.18 / -0.33 / -0.39 / -0.58 / -0.48 / -0.20", "signal with controls": "2 of 18 (2.79)"}
{"changes": "S25Y/S26Y/Q27P/V29Y/W56D", "log10 Kd (nM) by replicate": "0.29 / 0.34 / -0.05 / 0.16 / 0.11 / 0.16", "signal with controls": "2 of 18 (3.86)"}
{"changes": "K24H/S25V/Q27P/W56N/S103Q", "log10 Kd (nM) by replicate": "-0.07 / -0.21 / -0.13 / -0.37 / -0.29 / -0.16", "signal with controls": "1 of 18 (1.67)"}
{"changes": "S25F/L30A/N35T/W56D", "log10 Kd (nM) by replicate": "0.15 / 0.02 / -0.11 / -0.11 / 0.31 / 0.38", "signal with controls": "1 of 18 (2.00)"}
{"changes": "S25I/Y31M/K36S/W56D", "log10 Kd (nM) by replicate": "-0.04 / -0.06 / -0.06 / 0.04 / -0.10 / -0.09", "signal with controls": "1 of 18 (2.61)"}
{"changes": "K24H/V29F/W56G", "log10 Kd (nM) by replicate": "0.35 / 0.07 / 0.37 / 0.09 / -0.08 / 0.43", "signal with controls": "1 of 18 (3.50)"}
{"changes": "S25E/V29W/L30E/W56G", "log10 Kd (nM) by replicate": "0.49 / 0.38 / 0.22 / 0.16 / 0.29 / 0.39", "signal with controls": "0 of 18"}
{"changes": "S25L/Q27I/V29F/W56E", "log10 Kd (nM) by replicate": "-0.26 / -0.32 / -0.38 / -0.37 / -0.32 / -0.25", "signal with controls": "1 of 18 (4.23)"}
{"changes": "S25L/V29T/E32D/R34I/H98K", "log10 Kd (nM) by replicate": "0.58 / 0.69 / 0.71 / 0.61 / 0.33 / 0.78", "signal with controls": "1 of 18 (2.19)"}
{"changes": "S25L/S26R/Q27M/V29T/W56H/S62M", "log10 Kd (nM) by replicate": "-0.02 / -0.04 / -0.07 / -0.13 / -0.12 / 0.03", "signal with controls": "1 of 18 (1.73)"}
{"changes": "S26G/S28G/V29G/W56G/S103H", "log10 Kd (nM) by replicate": "-0.21 / -0.04 / 0.06 / 0.07 / 0.13 / 0.11", "signal with controls": "0 of 18"}
{"changes": "V29D/K36V/W56G", "log10 Kd (nM) by replicate": "0.06 / -0.16 / -0.10 / -0.25 / -0.17 / 0.14", "signal with controls": "2 of 18 (3.11)"}
{"changes": "S25L/S26P/S28Q/V29W/W56S", "log10 Kd (nM) by replicate": "0.10 / 0.10 / -0.04 / 0.11 / 0.07 / 0.32", "signal with controls": "2 of 18 (2.16)"}
{"changes": "W56G/T59Q/P101T", "log10 Kd (nM) by replicate": "-0.23 / -0.24 / -0.15 / -0.28 / -0.28 / -0.07", "signal with controls": "0 of 18"}
{"changes": "S26L/N35D/W56Q/S62D", "log10 Kd (nM) by replicate": "0.48 / -0.04 / 0.09 / -0.07 / 0.12 / 0.08", "signal with controls": "0 of 18"}

Repeated from above, the 4 best binders with a signal in all replicates:

{"changes": "S25F/N35M/W56N/S58V/S62T", "log10 Kd (nM) by replicate": "-0.18 / -0.33 / -0.39 / -0.58 / -0.48 / -0.20", "signal with controls": "2 of 18 (2.79)"}
{"changes": "S25L/Q27I/V29F/W56E", "log10 Kd (nM) by replicate": "-0.26 / -0.32 / -0.38 / -0.37 / -0.32 / -0.25", "signal with controls": "1 of 18 (4.23)"}
{"changes": "S26P/V29W/W56G/T59F", "log10 Kd (nM) by replicate": "-0.16 / -0.27 / -0.28 / -0.34 / -0.25 / -0.21", "signal with controls": "1 of 18 (1.66)"}
{"changes": "S25F/Q27W/Y31F/W56D/E61S", "log10 Kd (nM) by replicate": "-0.02 / -0.10 / -0.22 / -0.48 / -0.65 / -0.02", "signal with controls": "0 of 18"}

From the AlphaSeq antibody data of Li et al. 2023 (doi:10.1038/s41467-023-39022-2), copy in the FLAb collection.